Test results: patent US20110319451A1, “5-Ht6 Receptor and Modulators Thereof for the Treatment of Insulin-Related Disorders” (priority 2008, published 2011)

Protein sequences, listed by entry. Tags and fused reporters are not part of them.
UniProt Q9R1C8, whole entry: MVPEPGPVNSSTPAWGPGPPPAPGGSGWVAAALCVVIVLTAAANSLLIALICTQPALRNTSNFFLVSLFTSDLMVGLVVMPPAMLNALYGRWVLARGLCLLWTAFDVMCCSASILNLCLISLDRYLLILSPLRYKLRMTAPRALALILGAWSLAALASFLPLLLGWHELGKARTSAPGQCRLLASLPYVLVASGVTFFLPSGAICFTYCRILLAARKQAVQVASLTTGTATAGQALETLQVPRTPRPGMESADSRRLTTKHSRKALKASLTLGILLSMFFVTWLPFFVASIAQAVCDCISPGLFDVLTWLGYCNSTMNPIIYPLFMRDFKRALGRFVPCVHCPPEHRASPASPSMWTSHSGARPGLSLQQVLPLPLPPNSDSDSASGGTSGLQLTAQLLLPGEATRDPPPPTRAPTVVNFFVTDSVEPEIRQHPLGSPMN

Biological target: mouse 5-HT6 receptor (Mus musculus, UniProt Q9R1C8)
Details: HEK293 cells, 60 minutes at room temperature, FIG. 4

**Q.** For `Cc1[nH]c2ccc(Cl)cc2c1C1=CCNCC1` [Compound A, 5-Chloro-2-methyl-3-(1,2,3,6-tetrahydro-pyridin-4-yl)-1H-indole], which cAMP production is on record?
**A.** stimulates cAMP production
